In PubChem BioAssay AID2803 (The Scripps Research Institute Molecular Screening Center, 2010):
This is a selection; strong and weak results do not stand in their true shares. Activity calls are given as the source filed them. No stated cut-off is given here; in the data, active means inhibition above about 43%; inactive means the rest.

Sequences of proteins named here, by UniProt entry; tags and fusion partners are left off.
UniProt Q4J6C6, whole entry, looked up: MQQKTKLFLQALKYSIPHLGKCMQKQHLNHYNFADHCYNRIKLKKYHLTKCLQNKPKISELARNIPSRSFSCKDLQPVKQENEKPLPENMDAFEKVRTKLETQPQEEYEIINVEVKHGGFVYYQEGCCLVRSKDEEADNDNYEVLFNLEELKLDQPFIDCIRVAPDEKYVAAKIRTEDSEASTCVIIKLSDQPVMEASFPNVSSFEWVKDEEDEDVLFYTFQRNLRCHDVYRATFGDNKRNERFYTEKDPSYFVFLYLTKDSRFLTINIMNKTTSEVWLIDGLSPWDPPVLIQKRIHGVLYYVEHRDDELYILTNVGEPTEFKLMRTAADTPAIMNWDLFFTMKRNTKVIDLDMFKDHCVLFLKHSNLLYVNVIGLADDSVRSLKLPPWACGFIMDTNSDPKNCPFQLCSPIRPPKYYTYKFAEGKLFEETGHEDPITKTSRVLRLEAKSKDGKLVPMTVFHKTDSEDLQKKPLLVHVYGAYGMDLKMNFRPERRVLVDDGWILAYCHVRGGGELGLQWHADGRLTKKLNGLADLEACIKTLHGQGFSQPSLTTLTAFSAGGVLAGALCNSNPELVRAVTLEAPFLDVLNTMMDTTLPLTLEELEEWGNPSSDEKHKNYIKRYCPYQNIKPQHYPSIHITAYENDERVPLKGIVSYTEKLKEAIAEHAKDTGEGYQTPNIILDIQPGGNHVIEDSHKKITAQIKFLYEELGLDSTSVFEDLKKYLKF

These compounds were tested against Prolyl endopeptidase-like (Homo sapiens) (UniProt Q4J6C6) (assay: human PREPL enzyme inhibitors, confirmation, biochemical, fluorescence polarization (AID 2803;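 further: 0% = protein with DMSO and 100% = wells lacking protein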)). Details: recombinant PREPL, fluorescence polarization activity probe; at 5.96 µM; stronger effect = higher value.

Row | Structure (SMILES) | inhibition
1 | CN(C(=O)Cc1ccc(Cl)c(Cl)c1)[C@H]1CCCC[C@H]1N1CCCC1 | active: 52.6%
